Laboratory results: US4735953A, “Pharmaceutical preparation for learning stimulation and memory improvement” (priority 1986, dated 1988)

Test system: rabbit's brain hemispheres
Experiment: Amplitude of induced potential in brain hemispheres (acoustic irritation)
Assay type: in vivo
Settings: rabbits
Protocol: In the third series of experiments the effect of the preparation according to the present invention on the functional brain asymmetry was studied. The experiments were carried out on rabbits with electrodes implanted in the brain. The electrodes under nembutal narcosis (40 mg/kg) were implanted strictly symmetrically into the bearing zone of the temporal cortex of the right and left hemispheres on its lateral surface, whereas the indifferent electrode was secured to the nasal bones of a rabbit's skull. The acoustic irritation was applied through earphones. As the acoustic irritation a sound click caused by a square-shaped pulse from an electronic stimulator with a frequency of 0.1-0.2 Hz was used; the click intensity was adjusted within the range of from 5 to 80 Db. The amplification of the taken-off biopotentials was effected on an electroencephalograph; the induced potentials were obtained by means of an analyzer. 100 experiments on 20 animals were thus conducted; the interval between experiments on one animal was 7 days. The amplitude and form of the induced potential were determined. The asymmetry factor (Kas) was calculated by the formula: [formula] Ar --amplitude of the induced potential of the […] hemisphere, μV;
A1 --amplitude of the induced potential of the left hemisphere.
The test preparations were administered hypodermally in the form of 0.5-1.5% aqueous solutions 20 minutes before the beginning of the measurements.

With `COc1ccc2c3c1O[C@H]1C[C@@H](O)C=C[C@@]31CCN(C)C2` [Galantamine] the “Change of amplitude of induced potential, % of the control, left hemisphere” value (from here on “Change … % of the control, left hemisphere”) (hypodermally 3 mg/kg) was 150%, the “Change of amplitude of induced potential, % of the control, right hemisphere” value (“Change … % of the control, right hemisphere” for short) (hypodermally 3 mg/kg) was 165% and the “Mean value of amplitude of induced potential, %” value (from here on “Mean value of amplitude … %”) (hypodermally 3 mg/kg) was 160%.
`CNC(=O)Oc1ccc2c(c1)[C@]1(C)CCN(C)[C@@H]1N2C` [Physostigmine, physostigmine] was tested, and the “amplitude of induced potentials (in words)” value was “increased amplitude of the induced potential”, the “Change … % of the control, left hemisphere” value (hypodermally 0.04 mg/kg) was 115% and the “Change … % of the control, right hemisphere” value (hypodermally 0.04 mg/kg) was 175%. For the same compound, the “Mean value of amplitude … %” value (hypodermally 0.04 mg/kg) was 145%.
For `NC(=O)CN1CCCC1=O` [Pyracetam, pyracetam], the “Change … % of the control, left hemisphere” value (hypodermally 100 mg/kg) was 110%, the “Change … % of the control, right hemisphere” value (hypodermally 100 mg/kg) was 105% and the “Mean value of amplitude … %” value (hypodermally 100 mg/kg) was 107%.
